Compound activity from PubChem BioAssay.
MC4R ag barr = activates human MC4R beta-arrestin recruitment | P32245 | U2OS MC4R beta-arrestin complementation, luminescence; percent of melanotan II response, DMSO zero | activation, % at 8.9 µM | 360,000 tested, 0.98% active | AID 540308;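 active = activation above a per-plate cutoff, the mean activation of sample wells on that plate plus 3 SD, cut at about 8% in these data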
UUG fidelity = modulators of start codon recognition fidelity in yeast. activity score, % at 18.7 µM. S. cerevisiae UUG-firefly luciferase reporter, luminescence/redox ratio. 350,000 compounds, 0.13% hits;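 active means replicate mean at a twofold rise or more, about +100% in these data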;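 further: firefly luciferase made from a UUG start codon reports start codon fidelity; reporter light over untreated wells divided by growth signal over untreated wells; some hits fall short of that in this replicate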
ARFGAP1 inhibitor = rat ARFGAP1 inhibition | Arfgap1-stimulated ARF1 GTP hydrolysis, GDP FP detection | 360,000 tested, 0.26% active | AID 651572 | Q62848 | inhibition, % at 16.5 µM;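 active = inhibition above a per-plate limit, mean inhibition of low control wells plus 3 SD, cut at about 25% in these data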
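Assay system: purified rat His6-Arfgap1 residues 1-136 (GAP domain); Reagent: human Δ17 ARF1 bound to GTP; Dosing: 16.5 µM single point, 1.26% DMSO; Times: GTP hydrolysis reaction 2 h at 25 °C; Signal: FP, GDP Alexa 633 tracer displaced from anti-GDP antibody, 620/688 nm; Measure: % inhibition from polarization.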
MC4R antag cAMP = antagonists of human melanocortin 4 receptor (MC4R); P32245; MC4R-expressing cells, MTII-stimulated cAMP, LANCE TR-FRET; inhibition, % at 6.5 µM; 360,000 tested, 0.48% active;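 active = inhibition above its plate's cutoff, the mean of tested wells on that plate plus 3 SD, cut at about 29% in these data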
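Assay system: U2OS cells stably expressing human melanocortin 4 receptor (MC4R) / Dosing: 6.5 µM / Timing: compound 30 min, challenge 1 h, detection 1 h / Measured by: Eu-cAMP/anti-cAMP TR-FRET, emission 671 nm / Replicates: singlicate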
ASAP1 GAP inh = blocks human ASAP1-stimulated Arf1 GTP hydrolysis; GDP FP detection; AID 624377; inhibition, % at 16.5 µM; Q9ULH1; 360,000 tested, 0.19% active; in the data active = inhibition above about 25%
CendR NRP1 mod = modulators of CendR peptide binding to human neuropilin-1. FAM-RPARPAR peptide binding to NRP-1, fluorescence polarization. inhibition, % at 25 µM. AID 602438. 360,000 tested, 0.85% active. O14786;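 active = inhibition or corrected inhibition above about 18%, plus a signal ratio from 0.5 to 1.5, limit read from the data, passing the limit was not always enough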
MC4R barr conf = human MC4R beta-arrestin agonism confirmation | shares compounds with MC4R ag barr | U2OS MC4R beta-arrestin recruitment, luminescence; scaled DMSO 0%, Melanotan II 100% | activation, % at 8.9 µM | 2,400 tested, 31% active | AID 602192;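 active = mean activation across replicates above the hit cutoff set in the earlier primary screen, cut at about 8% in these data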
MOR DOR agonist = OPRM1-OPRD1 heterodimer agonism counter-screen | 2,400 tested, 5.8% active | activation, % at 9.2 µM | AID 602194 | U2OS PathHunter beta-arrestin, beta-gal luminescence; percent of deltorphin B response, DMSO zero | shares compounds with MC4R ag barr;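 active = mean activation across replicates exceeds the hit threshold derived in the earlier primary screen, cut at about 18% in these data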
Hits are given with their value; – = inactive; · = not tested or not shown. The list is not random: actives were taken first. Their share in the collection is about 2.3%.

SMILES	MC4R ag barr	UUG fidelity	ARFGAP1 inhibitor	MC4R antag cAMP	ASAP1 GAP inh	CendR NRP1 mod	MC4R barr conf	MOR DOR agonist
C[C@H](CO)N1C[C@H](C)[C@H](CN(C)C(=O)c2ccncc2)OCCCC[C@H](C)Oc2ccc(NS(=O)(=O)c3ccc(Cl)cc3)cc2C1=O	·	–	·	·	·	·	·	·
C[C@H](CO)N1C[C@H](C)[C@H](CN(C)S(=O)(=O)c2cn(C)cn2)Oc2c(NS(C)(=O)=O)cccc2C1=O	·	–	·	·	·	·	·	·
Cc1ccc(NC(=O)/C(C#N)=C/c2ccc(C)s2)c(C)c1	18	–	–	–	–	–	–	–
C[C@H]1CN([C@@H](C)CO)C(=O)Cc2cc(NC(=O)CCC(F)(F)F)ccc2O[C@H]1CN(C)Cc1ccc(C(=O)O)cc1	·	–	·	·	·	·	·	·
O=C(Nc1ccc2c(c1)OCO2)c1cc2n(n1)C(C(F)(F)F)CC(c1ccccc1)N2 (stereo unspecified)	15	–	–	–	–	–	–	–
COc1ccc(NC(=O)c2cc3n(n2)C(C(F)(F)F)CC(c2ccc(OC)cc2)N3)cc1 (stereo unspecified)	–	–	–	–	–	–	·	·
C[C@H]1CN([C@@H](C)CO)C(=O)c2cc(-c3ccc(F)cc3)cnc2O[C@H]1CN(C)C(=O)NC1CCCC1	·	–	·	·	·	·	·	·
Cc1cccc(NC(=O)C2C3CCC4C(CCC32)C4(Cl)Cl)c1 (stereo unspecified)	13	–	–	–	–	–	–	–
O=C(COC(=O)c1ccc2ccccc2n1)Nc1ncc(C(F)(F)F)cc1Cl	–	–	–	–	–	–	·	·
O=C(COC(=O)c1ccc2ccccc2c1)Nc1ncc(C(F)(F)F)cc1Cl	10	–	–	–	–	–	–	–
CCCCOc1ccc(C(=O)N/C(=C\c2cccc([N+](=O)[O-])c2)C(=O)OCc2ccco2)cc1	20	–	–	–	–	–	–	–
CCCCOc1ccc(C(=O)N/C(=C\c2ccc(OC)cc2)C(=O)OCc2ccco2)cc1	–	–	–	–	–	–	·	·
O=C(O)c1nn(CCOc2ccc(Cl)cc2Cl)c(=O)c2ccccc12	18	–	–	–	–	–	–	–
O=C(O)c1nn(CCOc2cccc(Cl)c2)c(=O)c2ccccc12	–	·	–	–	–	–	·	·
c1ccc(COc2cccc(-c3cc4nc(NCCOc5ccccc5)ccn4n3)c2)cc1	–	–	–	–	–	–	·	·
Clc1cccc(-c2cc3nc(NCCOc4ccccc4)ccn3n2)c1	11	–	–	–	–	–	–	–
Cc1cc(C)cc(NC(=O)Nc2ccc(NC(=O)c3ccccc3O)cc2)c1	16	–	–	–	–	–	–	–
O=C1/C(=C/c2cccc([N+](=O)[O-])c2)CSc2ccc(Cl)cc21	11	·	–	–	–	–	–	–
O=C1/C(=C/c2cccc([N+](=O)[O-])c2)CCc2ccccc21	–	–	–	–	–	–	·	·
Cc1ccc(C)c(OCC(=O)Nc2nonc2NC(=O)COc2cc(C)ccc2C)c1	19	–	–	–	–	–	–	–
CCC(=O)N(C)C[C@@H]1Oc2cc(-c3cccc(OC)c3)ccc2S(=O)(=O)N([C@@H](C)CO)C[C@H]1C	·	–	·	·	·	·	·	·
O=C(COc1ccc(Cl)cc1Cl)NC(=O)c1ccccc1	10	–	–	–	–	–	–	–
C[C@H]1CN([C@@H](C)CO)C(=O)c2cc(NC(=O)Cc3ccccc3)ccc2O[C@@H]1CN(C)Cc1ccc(-c2ccccc2)cc1	·	–	·	·	·	·	·	·
CC(C)(C)CC(C)(C)c1ccc(OCCOCC[N+](C)(C)Cc2ccccc2)cc1	12	–	–	–	–	–	35	–
C/C=C/c1ccc2c(c1)O[C@@H](CN(C)Cc1ccc(C(=O)O)cc1)[C@@H](C)CN([C@@H](C)CO)S2(=O)=O	·	–	·	·	·	·	·	·
SMILES	MC4R ag barr	UUG fidelity	ARFGAP1 inhibitor	MC4R antag cAMP	ASAP1 GAP inh	CendR NRP1 mod	MC4R barr conf	MOR DOR agonist
CCNC(=O)C[C@H]1CC[C@H]2[C@@H](COC[C@@H](O)CN2C(=O)Nc2c(C)noc2C)O1	·	–	·	·	·	·	·	·
Cc1ccc(Cn2ccc(NC(=O)c3cc(-c4ccccc4)on3)n2)cc1	11	–	–	–	–	–	–	–
COc1ccc(NC(=O)N(C)C[C@H]2Oc3c(NC(=O)Nc4cccc5ccccc45)cccc3C(=O)N([C@H](C)CO)C[C@H]2C)cc1	·	–	·	·	·	·	·	·
Cc1cccc(OCc2nnc(NC(=O)Cc3cccs3)s2)c1	34	–	–	–	–	–	9.9	–
Cc1ccc(OCc2nnc(NC(=O)Cc3cccs3)s2)cc1	·	·	–	·	–	·	·	·
COc1ccc(C2C(=O)c3ccccc3C2=Nc2ccc(Br)cc2)cc1 (stereo unspecified)	26	–	–	–	–	–	11	–
Cc1cc(OCCN2CC(C)OC(C)C2)ccc1[N+](=O)[O-] (stereo unspecified)	–	–	–	–	–	–	·	·
Cc1cc(OCCN2CCC(Cc3ccccc3)CC2)ccc1[N+](=O)[O-]	14	–	–	–	–	–	–	–
COc1ccc(OC)c(NC(=O)c2cc(-c3cc(C)ccc3O)n[nH]2)c1	10	–	–	–	–	–	–	–
Cc1cccc(-c2nsc(SCC(=O)Nc3ccc4c(c3)OCO4)n2)c1	–	·	–	–	–	–	·	·
Cc1ccc2cc(C)c(SCC(=O)Nc3cc(C)on3)nc2c1	20	–	–	–	–	–	–	–
Cc1cccc(-c2nsc(SCC(=O)Nc3nccs3)n2)c1	13	–	–	–	–	–	–	–
CCc1cc2cc(C)c(C)cc2nc1SCC(=O)Nc1cc(C)on1	–	·	–	–	–	–	·	·
COc1ccc(-c2nsc(SCC(=O)Nc3cc(C)on3)n2)cc1	17	–	–	–	–	–	–	–
CO[C@@H]1CN(C)C(=O)c2cc(NC(=O)c3ccc4c(c3)OCO4)ccc2OC[C@H](C)N(CCC(F)(F)F)C[C@@H]1C	·	–	·	·	·	·	·	·
O=C(NCC1CCCCC1)[C@@H]1[C@@H](CO)[C@@H]2Cn3c(ccc(C4=CCCCC4)c3=O)[C@H]1N2	·	–	·	·	·	·	·	·
O=c1oc2ccccc2cc1-c1cn2ccccc2n1	11	·	–	–	–	–	–	–
Cc1ccc(-n2nc3c4c(cccc4c2=O)-c2ccccc2-3)cc1	21	–	–	–	–	–	10	–
O=C(O)Cn1nc2c3c(cccc3c1=O)-c1ccccc1-2	–	–	–	–	–	–	·	·
